For 2 substances, Glucose uptake CPM of 3T3-L1 fat cells results are on record in patent EP2468858B1.

This experiment concerns the target FGF-21 receptor on differentiated 3T3-L1 fat cells (mouse). Nature of the experiment: cell-based or functional assay.

The substance “Met-Exendin4-(GGGGS)3-FGF21 fusion protein expressed in E. coli” returned a Glucose uptake CPM of 3T3-L1 fat cells at 0 nM protein (baseline) of 1850 CPM, a Glucose uptake CPM of 3T3-L1 fat cells at 0.03 nM protein of 1900 CPM, a Glucose uptake CPM of 3T3-L1 fat cells at 0.15 nM protein of 2210 CPM and a Glucose uptake CPM of 3T3-L1 fat cells at 0.8 nM protein of 2320 CPM. Also, the Glucose uptake CPM of 3T3-L1 fat cells at 4 nM protein was 3840 CPM, the Glucose uptake CPM of 3T3-L1 fat cells at 20 nM protein was 4800 CPM and the Glucose uptake CPM of 3T3-L1 fat cells at 100 nM protein amounted to 4880 CPM.
“Exendin4-(GGGGS)3-FGF21 fusion protein expressed in yeast (Pichia pastoris)”: the Glucose uptake CPM of 3T3-L1 fat cells at 0 nM protein (baseline) worked out at 2130 CPM, the Glucose uptake CPM of 3T3-L1 fat cells at 0.03 nM protein is 2030 CPM, the Glucose uptake CPM of 3T3-L1 fat cells at 0.15 nM protein is 2240 CPM and the Glucose uptake CPM of 3T3-L1 fat cells at 0.8 nM protein turned out to be 2400 CPM. The Glucose uptake CPM of 3T3-L1 fat cells at 4 nM protein turned out to be 4330 CPM, the Glucose uptake CPM of 3T3-L1 fat cells at 20 nM protein was 5390 CPM and the Glucose uptake CPM of 3T3-L1 fat cells at 100 nM protein was 5510 CPM.
